This test has as its target T1, Interstitial collagenase (Homo sapiens, UniProt P03956).
T1 sequence (P03956 whole entry): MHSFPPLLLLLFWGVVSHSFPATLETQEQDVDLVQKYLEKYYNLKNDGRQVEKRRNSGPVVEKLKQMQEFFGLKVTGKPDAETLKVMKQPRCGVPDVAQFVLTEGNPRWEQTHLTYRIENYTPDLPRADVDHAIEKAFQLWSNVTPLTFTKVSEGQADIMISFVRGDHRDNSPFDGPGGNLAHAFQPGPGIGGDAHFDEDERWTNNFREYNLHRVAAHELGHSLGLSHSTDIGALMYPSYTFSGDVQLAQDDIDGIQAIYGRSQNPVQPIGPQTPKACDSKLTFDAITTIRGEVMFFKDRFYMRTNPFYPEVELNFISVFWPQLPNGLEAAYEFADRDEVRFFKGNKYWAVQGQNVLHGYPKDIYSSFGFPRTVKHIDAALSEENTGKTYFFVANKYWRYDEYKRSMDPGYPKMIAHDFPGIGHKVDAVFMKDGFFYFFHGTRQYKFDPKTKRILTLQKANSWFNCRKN
Kind of test: Inhibition of trypsin-activated recombinant human collagenase 1 preincubated with protein followed by addition of DNP-Pro-Cha-Gly-Cys(Me)-His-Ala-Lys(NMA)-NH2 as substrate measured after 20 mins by fluorescence analysis.
Consider `C[C@@]1(O)CCCN(S(=O)(=O)c2ccc(OCc3ccccc3Cl)cc2)[C@H]1C(=O)NO`, for which the 50% inhibitory concentration (IC50) (usually the concentration that gives 50% inhibition) was 200 to 1000 nM.
With `CNC(=O)[C@H](Cc1ccc(OC)cc1)NC(=O)[C@@H](CC(=O)NO)CC(C)C` the figure was 3 nM; with `Cc1ccc(F)cc1COc1ccc(S(=O)(=O)N2CCC[C@@](C)(O)[C@@H]2C(=O)NO)cc1`, 200 to 1000 nM.
The result for `Cc1cc(F)ccc1COc1ccc(S(=O)(=O)N2CCC[C@@](C)(O)[C@@H]2C(=O)NO)cc1` reads 200 to 1000 nM.
